Earlier results as cited in patent publication US20090087916A1, “Assay method for identifying drug candidate” (AnGesMG, Inc., priority 2004, published 2009).

Sequences of proteins named here, by UniProt entry; tags and fusion partners are left off. Residues count along the entry.
UniProt P05067, 672-711: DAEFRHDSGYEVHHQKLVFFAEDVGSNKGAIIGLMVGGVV

Target: Aβ (1-40) (Homo sapiens, UniProt P05067)
Details: Yang et al., J Biol Chem 2005; cited from earlier work

COc1cc(/C=C/C(=O)CC(=O)/C=C/c2ccc(O)c(OC)c2)ccc1O [curcumin]
inhibition of formation of an Aβ (1-40) fiber: inhibit the formation of an Aβ (1-40) fiber
